# Patent publication US20160022665A2, “Pharmaceutical Compositions and Administrations Thereof” (Vertex Pharmaceuticals Incorporated, priority 2012, published 2016)
# Amino acid sequences for entries named in this document (tags omitted). Chains listed by the source or under a name are the forms on record and can include a tag or linker.
# UniProt P13569, with tags, fused parts or gaps DEL508-508: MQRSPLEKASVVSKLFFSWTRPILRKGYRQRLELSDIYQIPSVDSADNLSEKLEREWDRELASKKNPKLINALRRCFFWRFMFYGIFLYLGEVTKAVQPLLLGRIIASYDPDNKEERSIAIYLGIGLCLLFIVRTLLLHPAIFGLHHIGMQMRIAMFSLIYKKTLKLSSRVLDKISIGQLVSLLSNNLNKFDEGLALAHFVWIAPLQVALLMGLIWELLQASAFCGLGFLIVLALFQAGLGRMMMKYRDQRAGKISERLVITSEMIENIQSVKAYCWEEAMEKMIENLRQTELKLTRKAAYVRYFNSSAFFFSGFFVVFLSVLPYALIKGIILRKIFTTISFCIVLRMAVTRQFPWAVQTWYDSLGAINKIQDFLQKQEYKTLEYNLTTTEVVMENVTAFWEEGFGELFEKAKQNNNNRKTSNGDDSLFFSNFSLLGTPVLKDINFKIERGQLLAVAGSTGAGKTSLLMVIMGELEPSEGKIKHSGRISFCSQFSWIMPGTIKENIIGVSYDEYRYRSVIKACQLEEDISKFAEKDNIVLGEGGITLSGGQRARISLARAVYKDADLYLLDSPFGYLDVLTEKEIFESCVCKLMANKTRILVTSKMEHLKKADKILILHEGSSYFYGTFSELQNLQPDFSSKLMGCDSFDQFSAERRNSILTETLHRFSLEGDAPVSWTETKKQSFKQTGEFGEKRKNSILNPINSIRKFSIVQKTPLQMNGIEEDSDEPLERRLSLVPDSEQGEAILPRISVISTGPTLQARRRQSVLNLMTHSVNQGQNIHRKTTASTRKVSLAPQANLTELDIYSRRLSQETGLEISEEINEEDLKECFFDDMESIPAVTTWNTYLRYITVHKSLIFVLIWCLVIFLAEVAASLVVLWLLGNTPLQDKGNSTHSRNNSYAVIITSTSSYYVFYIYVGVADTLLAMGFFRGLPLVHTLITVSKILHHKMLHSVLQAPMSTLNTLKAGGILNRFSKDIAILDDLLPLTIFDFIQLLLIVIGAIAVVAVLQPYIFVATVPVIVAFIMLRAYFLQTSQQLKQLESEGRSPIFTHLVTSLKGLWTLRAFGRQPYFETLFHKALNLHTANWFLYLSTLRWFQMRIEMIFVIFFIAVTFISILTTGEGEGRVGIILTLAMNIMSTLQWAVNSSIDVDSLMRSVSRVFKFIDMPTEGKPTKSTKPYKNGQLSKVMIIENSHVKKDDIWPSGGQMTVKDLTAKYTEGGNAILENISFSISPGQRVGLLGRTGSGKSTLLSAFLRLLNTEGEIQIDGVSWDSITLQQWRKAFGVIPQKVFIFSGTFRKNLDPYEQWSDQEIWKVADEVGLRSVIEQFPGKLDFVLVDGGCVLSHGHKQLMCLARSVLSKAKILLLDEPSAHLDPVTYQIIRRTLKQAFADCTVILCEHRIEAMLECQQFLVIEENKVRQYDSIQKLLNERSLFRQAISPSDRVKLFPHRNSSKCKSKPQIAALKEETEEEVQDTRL
# Target: ΔF508-CFTR (Homo sapiens, UniProt P13569, DEL508-508)
# Assay: Membrane potential optical assay (fluorescent voltage sensing dyes, FLIPR III), identification of potentiator compounds (Protocol 1)
# Conditions: compounds of Formula II; 100% efficacy is the maximum response obtained with 4-methyl-2-(5-phenyl-1H-pyrazol-3-yl)phenol
row,Compound,% Efficacy
1,O=C(Nc1ccc(N2C3CCC2CC3)cc1C(F)(F)F)c1c[nH]c2cccc(C(F)(F)F)c2c1=O,++ (“++” if efficacy was calculated to be from 100% to 25%)
2,CN(C)CC#Cc1cc(N2C3CCC2CC3)ccc1NC(=O)c1c[nH]c2cccc(C(F)(F)F)c2c1=O,++ (“++” if efficacy was calculated to be from 100% to 25%)
